{"source": "patent US9345789B2", "about": "“Specific inhibitors and active site probes for legumain” (The Board of Trustees of the Leland Stanford Junior …, priority 2009, dated 2016)", "target": "cathepsin B (Homo sapiens (Human), UniProt P07858)", "assay": "Inhibition of cathepsin B, fluorogenic substrate Cbz-Phe-Arg-AMC", "settings": "read-out: Cathepsin B IC50; at 30 min"}
{"smiles": "CCOC(=O)[C@@H]1O[C@H]1C(=O)N(CC(N)=O)NC(=O)C1CCCN1C(C)=O", "note": "(stereo partly shown) [LI-1]", "values": [{"measurement": "IC50", "result": 390, "unit": "µM"}]}
